# From PubChem BioAssay (NCI)
#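 Five concentrations, 48 hours, 96-well plates. The concentration for 50% growth inhibition is given as GI50. At the TGI there is no net growth.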
# How the values were obtained:
# Test in all cases: NCI-60 cell line screen, 48 h
# SF-268 CNS = tested on: SF-268 CNS
# SK-MEL-28 melanoma = tested on: SK-MEL-28 melanoma
# NCI-H226 lung = tested on: NCI-H226 lung
# KM12 colon = tested on: KM12 colon
# TK-10 renal = tested on: TK-10 renal
# NCI-H522 lung = tested on: NCI-H522 lung
# NCI-H460 lung = tested on: NCI-H460 lung
# MOLT-4 leukemia = tested on: MOLT-4 leukemia
# 786-0 renal = tested on: 786-0 renal
# MALME-3M melanoma = tested on: MALME-3M melanoma
# RPMI-8226 leukemia = tested on: RPMI-8226 leukemia
# HOP-92 NSCLC = tested on: HOP-92 NSCLC
# SK-OV-3 ovarian = tested on: SK-OV-3 ovarian
# OVCAR-5 ovarian = tested on: OVCAR-5 ovarian
# HT29 colon = tested on: HT29 colon
# RXF 393 renal = tested on: RXF 393 renal
# EKVX NSCLC = tested on: EKVX NSCLC
# SK-MEL-2 melanoma = tested on: SK-MEL-2 melanoma
# OVCAR-3 ovarian = tested on: OVCAR-3 ovarian
# COLO 205 colon = tested on: COLO 205 colon
# NCI-H23 lung = tested on: NCI-H23 lung
# CCRF-CEM leukemia = tested on: CCRF-CEM leukemia
# M19-MEL melanoma = tested on: M19-MEL melanoma
# KM20L2 colon = tested on: KM20L2 colon
# CAKI-1 renal = tested on: CAKI-1 renal
# HL-60(TB) leukemia = tested on: HL-60(TB) leukemia
# SW-620 colon = tested on: SW-620 colon
# HCT-15 colon = tested on: HCT-15 colon
structure (smiles),measurement,setting,value
O=[N+]([O-])N1CCCS1(=O)=O,GI50,SF-268 CNS,> 100 µM
same,TGI,SF-268 CNS,> 100 µM
same,GI50,SK-MEL-28 melanoma,> 100 µM
same,TGI,SK-MEL-28 melanoma,> 100 µM
same,GI50,NCI-H226 lung,94 µM
same,TGI,NCI-H226 lung,> 100 µM
same,GI50,KM12 colon,> 100 µM
same,TGI,KM12 colon,> 100 µM
same,GI50,TK-10 renal,> 100 µM
same,TGI,TK-10 renal,> 100 µM
same,GI50,NCI-H522 lung,> 100 µM
same,TGI,NCI-H522 lung,> 100 µM
same,GI50,NCI-H460 lung,> 100 µM
same,TGI,NCI-H460 lung,> 100 µM
same,GI50,MOLT-4 leukemia,> 100 µM
same,TGI,MOLT-4 leukemia,> 100 µM
same,GI50,786-0 renal,> 100 µM
same,TGI,786-0 renal,> 100 µM
same,GI50,MALME-3M melanoma,> 100 µM
same,TGI,MALME-3M melanoma,> 100 µM
same,GI50,RPMI-8226 leukemia,> 100 µM
same,TGI,RPMI-8226 leukemia,> 100 µM
same,GI50,HOP-92 NSCLC,> 100 µM
same,TGI,HOP-92 NSCLC,> 100 µM
same,GI50,SK-OV-3 ovarian,> 100 µM
same,TGI,SK-OV-3 ovarian,> 100 µM
same,GI50,OVCAR-5 ovarian,> 100 µM
same,TGI,OVCAR-5 ovarian,> 100 µM
same,GI50,HT29 colon,> 100 µM
same,TGI,HT29 colon,> 100 µM
same,GI50,RXF 393 renal,> 100 µM
same,TGI,RXF 393 renal,> 100 µM
same,GI50,EKVX NSCLC,> 100 µM
same,TGI,EKVX NSCLC,> 100 µM
same,GI50,SK-MEL-2 melanoma,> 100 µM
same,TGI,SK-MEL-2 melanoma,> 100 µM
same,GI50,OVCAR-3 ovarian,> 100 µM
same,TGI,OVCAR-3 ovarian,> 100 µM
same,GI50,COLO 205 colon,> 100 µM
same,TGI,COLO 205 colon,> 100 µM
same,GI50,NCI-H23 lung,> 100 µM
same,TGI,NCI-H23 lung,> 100 µM
same,GI50,CCRF-CEM leukemia,> 100 µM
same,TGI,CCRF-CEM leukemia,> 100 µM
same,GI50,M19-MEL melanoma,> 100 µM
same,TGI,M19-MEL melanoma,> 100 µM
same,GI50,KM20L2 colon,> 100 µM
same,TGI,KM20L2 colon,> 100 µM
same,GI50,CAKI-1 renal,> 100 µM
same,TGI,CAKI-1 renal,> 100 µM
same,GI50,HL-60(TB) leukemia,> 100 µM
same,TGI,HL-60(TB) leukemia,> 100 µM
same,GI50,SW-620 colon,> 100 µM
same,TGI,SW-620 colon,> 100 µM
same,GI50,HCT-15 colon,> 100 µM
same,TGI,HCT-15 colon,> 100 µM
